The values that follow come from US7354928B2, “Small molecule inhibitors targeted at Bcl-2” (The Regents of the University of Michigan, priority 2001, dated 2008).

Protein sequences, listed by entry. Tags and fused reporters are not part of them. Chains listed by the source or under a name are the forms on record and can include a tag or linker. Residues count along the entry.
UniProt Q07817, whole entry: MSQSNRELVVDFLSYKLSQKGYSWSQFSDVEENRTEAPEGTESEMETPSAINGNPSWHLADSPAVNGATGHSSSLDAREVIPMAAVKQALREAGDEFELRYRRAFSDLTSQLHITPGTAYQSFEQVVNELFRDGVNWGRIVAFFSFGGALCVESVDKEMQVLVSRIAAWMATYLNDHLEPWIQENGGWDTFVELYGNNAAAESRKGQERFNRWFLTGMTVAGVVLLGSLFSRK
UniProt Q07817, 1-209 with tags or gaps DEL45-84 limits assumed: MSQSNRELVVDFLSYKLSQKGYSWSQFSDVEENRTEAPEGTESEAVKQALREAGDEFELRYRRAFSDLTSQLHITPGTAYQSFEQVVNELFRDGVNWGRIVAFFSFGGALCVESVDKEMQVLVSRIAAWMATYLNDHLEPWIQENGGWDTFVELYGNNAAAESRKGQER

The IC50 is the concentration at which inhibition is half-maximal.

The subject of assay [1] is HL-60 cells. Description: Cell viability, trypan blue exclusion, HL-60. The settings on record: read-out: IC50, inhibition of cell viability; HL-60, trypan blue exclusion, 24 hours.
Assay [2] addresses Bcl-XL (Homo sapiens, UniProt Q07817, DEL45-84). Put plainly: NMR HSQC binding experiment with 15N labeled Bcl-XL. The settings on record: 300 μM Bcl-XL, 300 μM compound, pH 7.3, 25° C.
In the next assay the test system is MDA-453 cells. Description: Cell viability, trypan blue exclusion, MDA-453. The class given is cell-based, human. The settings on record: MDA-453, 25 μM.
Assay [3] relates to HL-60 cells. Put plainly: Cell growth MTT assay, HL-60. The settings on record: read-out: IC50, inhibition of cell growth; HL-60, MTT assay, cells treated for 4 days.
Assay [4] addresses Bcl-XL (Homo sapiens, UniProt Q07817). Description: FP binding assay on Bcl-XL. The settings on record: read-out: IC50, binding to Bcl-XL.
The next assay deals with T47D cells. Put plainly: Cell viability, trypan blue exclusion, T47D. It is filed as cell-based, human. The settings on record: 25 μM.

Each structure is given as a SMILES string.

As for `COc1ccc2c(c1)CCc1cc(OC)ccc1[N+]([O-])=[N+]2[O-]` [Compound 6a, 2,9-Dimethoxy-11,12-dihydrodibenzo [c,g] [1,2] diazocine-5,6-dioxide], the IC50 is 10 µM in the assay on HL-60 cells [1], 4 µM in the assay with HL-60 cells [3] and 7 µM at Bcl-XL [4]. Moreover, at Bcl-XL [2], the “binding to Bcl-XL by HSQC chemical shift changes” value is “binds to the BH3 binding site in Bcl-XL and doesn't unfold the protein”. In addition, the “effect on cell viability” value is “no effect” in the assay on MDA-453 cells and “minimal activity” in the assay on T47D cells.
